Screening data (PubChem BioAssay)
HCMV UL50-53 inh = inhibitors of HCMV UL50-UL53 interaction, biochemical, HTRF; HCMV UL50-UL53 nuclear egress complex (human cytomegalovirus); normalized percent inhibition; inhibition, % (no concentration beside the values); 0.15% of 190,000 active; AID 1918969, 2023; in the data active = inhibition above about 27%, passing the limit was not always enough
GIV Gai3 FP = GIV-Galpha-i interaction inhibition; AID 1224905; 210,000 tested, 0.42% active; Galpha-i3/FITC-GIV peptide fluorescence polarization, 90 min; stronger effect = lower value; scaled: aluminum fluoride 0%, vehicle 100%; percent of control (FP), % (concentration not given with the values);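 active = replicate mean at 85% of control or lower, very high polarization wells dropped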;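 also: wells of about 15 µL received 100 nL stock; the first replicate is given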
* = called active by the depositor; nt = not tested or not shown. Only some compounds are listed: those with a hit (about 0.46% of all), similar ones and a draw of the others.

(1) CN1C(=O)/C(=C(/C#N)C(=O)N2CCCC2)c2ccccc21
(2) COc1cccc(/C(O)=C/c2nc3ccc(C(=O)N4CCN(C5CCCCC5)CC4)cc3[nH]c2=O)c1
(3) COc1cccc(/C(O)=C/c2nc3ccc(C(=O)N4CCN(c5ccccn5)CC4)cc3[nH]c2=O)c1
(4) O=C(/C=C/c1ccc2c(c1)OCO2)Nc1ccc2nc3n(c(=O)c2c1)CCCCC3
(5) COc1ccc(NC(=O)Cn2cc(-c3nc(-c4ccc(C)cc4)no3)ccc2=O)c(OC)c1
(6) COc1cc2cc3c(=O)oc(-c4ccccc4F)nc3nc2cc1OC
(7) CN(C)c1ccc(N=Cc2nc(-c3ccccc3)oc2O)cc1
(8) CN(C)c1ccc(N=Cc2nc(-c3ccccc3)oc2OC(=O)c2ccccc2)cc1

| Compound | 1 | 2 | 3 | 4 | 5 | 6 | 7 | 8 |
| --- | --- | --- | --- | --- | --- | --- | --- | --- |
| HCMV UL50-53 inh | 14 | -74 | -44 | -8 | nt | -6 | nt | -30 |
| GIV Gai3 FP | nt | 110 | 55* | 106 | 100 | nt | -24* | nt |

(9) CC(=O)Nc1ccc(C(C)C(=O)Nc2ncc(C(C)C)s2)cc1 (stereo not drawn)
(10) CCCc1ccc(S(=O)(=O)Nc2cccc(C(=O)N3CCCC(C(=O)NC4CCCC4)C3)c2)cc1 (stereo not drawn)
(11) C=CCNC(=O)C1CCCN(C(=O)c2cccc(NS(=O)(=O)c3ccc(C(C)C)cc3)c2)C1 (stereo not drawn)
(12) CCOc1ccc(NC(=O)Nc2cccc(OCc3cc(=O)n4cc(Cl)ccc4n3)c2)cc1
(13) Cc1ccc2nc(COc3ccc(NC(=O)Nc4ccc(Cl)cc4)cc3)cc(=O)n2c1
(14) O=C(Nc1ccc2nc3n(c(=O)c2c1)CCCCC3)c1ccco1
(15) Cc1nc2nc(-c3ccc(C(C)(C)C)cc3)nn2c(C)c1CC(=O)N1CCc2ccccc2C1
(16) Cc1ccc(S(=O)(=O)Nc2c(C#N)c3nc4ccccc4nc3n2Cc2ccccc2)cc1

| Compound | 9 | 10 | 11 | 12 | 13 | 14 | 15 | 16 |
| --- | --- | --- | --- | --- | --- | --- | --- | --- |
| HCMV UL50-53 inh | -1 | nt | nt | nt | nt | 4 | -10 | 77* |
| GIV Gai3 FP | nt | 102 | -65* | 107 | 85* | 100 | 101 | nt |

Quoted at random: 2 entries already listed, in no set order.
(6) COc1cc2cc3c(=O)oc(-c4ccccc4F)nc3nc2cc1OC
(14) O=C(Nc1ccc2nc3n(c(=O)c2c1)CCCCC3)c1ccco1

| Compound | 6 | 14 |
| --- | --- | --- |
| HCMV UL50-53 inh | -6 | 4 |
| GIV Gai3 FP | nt | 100 |

Additional results follow.
(17) N#Cc1c(NS(=O)(=O)c2ccccc2)n(-c2ccccc2)c2nc3ccccc3nc12
(18) C=CCn1c(NS(=O)(=O)c2ccccc2)c(C#N)c2nc3ccccc3nc21
(19) N#Cc1c(N)n(Cc2ccccc2)c2nc3ccccc3nc12
(20) O=C(O)c1cc(NC(=O)c2cccc(N3C(=O)c4cccc5c([N+](=O)[O-])ccc(c45)C3=O)c2)cc(C(=O)O)c1
(21) O=C(O)c1cccc(N2C(=O)c3ccc4c5c(ccc(c35)C2=O)C(=O)N(c2cccc(C(=O)O)c2)C4=O)c1
(22) O=C(O)c1ccc(-c2ccc(/C=C3\Sc4ccccc4C3=O)o2)cc1
(23) O=C(O)c1cccc(-c2ccc(/C=C3\Sc4ccccc4C3=O)o2)c1
(24) CCOC(=O)c1ccc(-c2ccc(/C=C3\Sc4ccccc4C3=O)o2)cc1

| Compound | 17 | 18 | 19 | 20 | 21 | 22 | 23 | 24 |
| --- | --- | --- | --- | --- | --- | --- | --- | --- |
| HCMV UL50-53 inh | -42 | 65* | -20 | -20 | -43 | nt | -86 | -18 |
| GIV Gai3 FP | nt | nt | nt | 85* | 105 | -10* | -73* | 116 |

(25) COC(=O)c1cccc(-c2ccc(/C=C3\Sc4ccccc4C3=O)o2)c1
(26) CC(C)NS(=O)(=O)c1ccc(-c2ccno2)s1
(27) CC1CCC(NS(=O)(=O)c2ccc(-c3ccno3)s2)CC1 (stereo not drawn)
(28) COc1ccc(-c2nn(C)c3sc(C(=O)N(C)C4CCCCC4)cc23)cc1OC
(29) NNC(=O)COc1c(Br)cc(Br)c2cccnc12
(30) Nc1c(Br)cc(Br)c2cccnc12
(31) COc1cc(C=C2C(=O)NC(=O)NC2=O)cc(Cl)c1OCCOc1cccc(C)c1
(32) COc1cc(C=C2C(=O)NC(=O)NC2=O)cc(Cl)c1OCC(=O)O

| Compound | 25 | 26 | 27 | 28 | 29 | 30 | 31 | 32 |
| --- | --- | --- | --- | --- | --- | --- | --- | --- |
| HCMV UL50-53 inh | 5 | nt | nt | -24 | -17 | 58* | 44* | 72* |
| GIV Gai3 FP | 163 | 31* | 95 | 96 | nt | 97 | 86 | 96 |

(33) COc1cc(C=C2C(=O)NC(=S)NC2=O)ccc1OCC(=O)O
(34) O=C1NC(=O)C(=Cc2cc(Cl)c(OC(=O)c3ccccc3)c(Cl)c2)C(=O)N1
(35) COc1cc(C=C2C(=O)NC(=O)NC2=O)cc(Br)c1OCc1ccccc1Cl
(36) COc1cc(C=C2C(=O)NC(=O)NC2=O)cc(Cl)c1OCc1ccc(Cl)cc1
(37) COc1cc(C=C2C(=O)NC(=S)NC2=O)cc(Cl)c1OCCOc1ccccc1
(38) COc1ccc(C(=O)Oc2c(Cl)cc(C=C3C(=O)NC(=O)NC3=O)cc2OC)cc1
(39) CCc1ccc(-n2nnc(C(=O)Nc3ccccc3)c2C)cc1
(40) CCN1CC(=O)N(CC)C1=S

| Compound | 33 | 34 | 35 | 36 | 37 | 38 | 39 | 40 |
| --- | --- | --- | --- | --- | --- | --- | --- | --- |
| HCMV UL50-53 inh | nt | 5 | 7 | 72* | -13 | 49* | -25 | -15 |
| GIV Gai3 FP | 99 | 108 | 105 | 87 | 91 | 103 | 101 | nt |

(41) O=C1CSC(c2cccc(NS(=O)(=O)c3cccc4nsnc34)c2)N1 (stereo not drawn)
(42) O=c1c2sccc2n2c(SCc3cccc(Cl)c3)nnc2n1CC1CCCO1 (stereo not drawn)
(43) COc1ccc(C2CC(c3ccc(C)cc3)=NN2C(=O)CCC(=O)O)cc1 (stereo not drawn)
(44) CC(C)(C)c1ccc(-c2nc3ccccc3[nH]2)cc1
(45) Cc1cccnc1-n1c(C)c(C)c2c1ncn1nc(CSc3nc4ccccc4o3)nc21

| Compound | 41 | 42 | 43 | 44 | 45 |
| --- | --- | --- | --- | --- | --- |
| HCMV UL50-53 inh | nt | -10 | -13 | 10 | -9 |
| GIV Gai3 FP | 105 | 100 | 103 | nt | 102 |
